Measurements reported in patent publication US5716929A (Vertex Pharmaceuticals, Inc., priority 1995, dated 1998).

By UniProt entry, the sequences of proteins in these tests, tags left out. Residues count along the entry.
UniProt P29466, 120-297 limits assumed: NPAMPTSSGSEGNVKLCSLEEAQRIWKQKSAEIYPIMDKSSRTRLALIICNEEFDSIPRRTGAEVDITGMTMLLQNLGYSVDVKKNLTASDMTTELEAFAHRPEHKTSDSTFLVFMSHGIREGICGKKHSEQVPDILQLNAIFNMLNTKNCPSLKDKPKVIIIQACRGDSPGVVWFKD
UniProt P29466, 317-404 limits assumed: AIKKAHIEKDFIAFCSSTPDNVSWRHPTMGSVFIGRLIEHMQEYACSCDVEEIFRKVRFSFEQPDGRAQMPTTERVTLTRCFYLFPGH

Legend:
[1] = biological target: interleukin-1β converting enzyme (ICE) (Homo sapiens, UniProt P29466); assay: Enzyme assay with UV-visible substrate (Succinyl-Tyr-Val-Ala-Asp-pNitroanilide); assay type: biochemical; conditions: read-out: UV-visible Ki, Example 4 table
[2] = test system: mature IL-1β, Human Peripheral Blood Mononuclear Cells (PBMC); assay: Cell assay: IL-1β assay with human PBMC or enriched adherent mononuclear cells; conditions: read-out: Cell IC50; Example 4 table; LPS-stimulated cells, mature IL-1β by ELISA

Ki [1]: 50 nM
Structure (SMILES): COc1cccc2oc(C(=O)[C@H](CC(=O)O)NC(=O)[C@H](C)NC(=O)[C@@H](NC(=O)[C@H](Cc3ccc(O)cc3)NC(C)=O)C(C)C)nc12
IC50 [2]: 745 nM
